# Yeast mating assay B: variants of the scFv Ab-14

Values reported by Li et al. 2023, doi:10.1038/s41467-023-39022-2 (FLAb copy).

All variants were tested on one target, the spike HR2 peptide PDVDLGDISGINAS (SARS-CoV-2).

Each scFv is VH, a (GGGGS)3 linker, VL, as in the parent Ab-14, and differs from it in the CDRs of the heavy chain only.
VH: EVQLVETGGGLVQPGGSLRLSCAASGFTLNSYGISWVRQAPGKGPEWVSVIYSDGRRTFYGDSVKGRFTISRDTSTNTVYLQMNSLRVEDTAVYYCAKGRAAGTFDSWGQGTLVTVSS
VL: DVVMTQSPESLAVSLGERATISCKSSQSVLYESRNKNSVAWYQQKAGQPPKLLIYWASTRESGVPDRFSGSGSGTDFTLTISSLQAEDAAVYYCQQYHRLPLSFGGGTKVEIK

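The starting antibody came from a phage panning campaign against this peptide. These sequences belong to a second round, designed from the earlier measurements on random variants of the parent. Several design methods are mixed in this list. The assay is AlphaSeq: two haploid yeast populations carry antibody and antigen on their surface. The frequency of each diploid, read from paired DNA barcodes, reflects how well the two displayed proteins bind. Scores were corrected for input abundance and mapped to Kd with protein pairs of known affinity run in the same pool. Mating was done six times.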

Substitutions are numbered in sequence along the VH above, starting at 1 (not Kabat).
This list holds designs with at most six substitutions.
Each Kd is an estimate from the mating assay, the geometric mean of the replicates in which the pair was seen; lower is stronger.
A pair that was not seen in any replicate is written "no signal"; this usually means weak binding, but a binder can also be missed.
Three control strains display no target. For all heavy chain designs, 1% of the pairings with them gave a signal, with a median of 120 nM and one signal in twenty below 7.0 nM, so weak values seen in few replicates may be background.

Variant R56K/S63R/A101T/S107T gave 30 nM (5 of 6 replicates).
Variant T28K/G61A/R100Q/A101T gave 11 nM (4 of 6 replicates).
Variant S31E/G103V/S107G gave no signal (0 of 6 replicates).
Variant S31E/G61Q/R100F/S107L gave 5.3 nM (2 of 6 replicates).
Variant T28D/S31E/R100K/A101E gave 7.4 nM (6 of 6 replicates).
Variant G61D/R100A/A101D gave 1.3 µM (1 of 6 replicates).
Variant G26S/T28D/F59A gave 7.2 nM (6 of 6 replicates).
Variant T28D/S31E/S53A/G61D/R100E/S107Q gave 630 pM (6 of 6 replicates).
Variant G26R/N30E/S53A gave 10 nM (6 of 6 replicates).
Variant T28S/S31D/G61A/S107K gave no signal (0 of 6 replicates).
Variant R100G gave 38 nM (2 of 6 replicates).
Variant T28E/S53A/R100M gave 1.7 nM (6 of 6 replicates).
Variant T28K/G61S/R100Q/A101T gave 4.4 nM (6 of 6 replicates).
Variant G26K/T28E/G61K/A101T gave 79 nM (2 of 6 replicates).
Variant D62N/R100K/S107M gave 17 nM (1 of 6 replicates).
Variant S31D/R100W gave 19 nM (6 of 6 replicates).
Variant F27E/T28N/S107N gave 1.3 µM (1 of 6 replicates).
Variant T28G/G61S/R100E gave 12 nM (6 of 6 replicates).
Variant R100S/A102K gave no signal (0 of 6 replicates).
Variant T28D/S31E/S53A/G61A/R100H/S107Q gave 5.7 nM (6 of 6 replicates).
Variant N30E/S35H/G61H/K65A gave 110 nM (3 of 6 replicates).
Variant N30E/S53A/S107R gave no signal (0 of 6 replicates).
Variant S31D/G61D/D106T gave no signal (0 of 6 replicates).
Variant T28D/R100S/S107V gave 7.3 nM (6 of 6 replicates).
Variant T28A/R57P/G61S/A102G gave no signal (0 of 6 replicates).
Variant G55F/G61D/R100Q/A101L gave no signal (0 of 6 replicates).
Variant N30Q/Y32H/R56M gave no signal (0 of 6 replicates).
Variant T28S/L29I/R100Q gave 5.3 nM (6 of 6 replicates).
Variant T28N/S63Q/A101T/S107Q gave 150 nM (6 of 6 replicates).
Variant T28S/S31D/G61K/S63T/A101T gave 730 pM (6 of 6 replicates).
Variant F59A/G61H gave 29 nM (6 of 6 replicates).
Variant T28S/S63P/R100N/S107T gave 1.4 nM (6 of 6 replicates).
Variant R56Y/A102E gave no signal (0 of 6 replicates).
Variant T28D/G61Q/G103V/S107V gave no signal (0 of 6 replicates).
Variant T28S/S31E/S53A/R100V gave 7.6 nM (6 of 6 replicates).
Variant T28N/G61Q/S63K/A101Q gave 19 nM (6 of 6 replicates).
Variant S31E/R56Q/A101H gave 21 nM (5 of 6 replicates).
Variant S31D/F59S/G61Q gave 38 nM (4 of 6 replicates).
Variant N30G/S63E/A101N/G103V gave no signal (0 of 6 replicates).
Variant G26H/T28E/G61A/A101Q gave 7.8 nM (6 of 6 replicates).
Variant S31E/G61T/A101E gave 1.1 nM (6 of 6 replicates).
Variant G61S/R100N gave 8.6 nM (6 of 6 replicates).
Variant T28S/S31D/A101T/D106I gave 4.6 nM (1 of 6 replicates).
Variant S53A/D54L/G103M/F105N/D106K gave no signal (0 of 6 replicates).
Variant Y32Q gave 9.2 nM (3 of 6 replicates).

Picked from the list: the 3 lowest averages where every replicate gave a value.

Variant T28D/S31E/S53A/G61D/R100E/S107Q gave 630 pM (6 of 6 replicates).
Variant T28S/S31D/G61K/S63T/A101T gave 730 pM (6 of 6 replicates).
Variant S31E/G61T/A101E gave 1.1 nM (6 of 6 replicates).

The authors' rule: three or more of the six replicates give a measured affinity, fewer mean a poor binder.
Of ten entries with the parent sequence, four were seen in most replicates (averages 2.2 nM to 240 nM), three in one and three in none, so single entries are noisy.
The range of this assay differs from that of the first round, and the authors advise against merging the two.